As usually defined, the Ki is the equilibrium dissociation constant of an inhibitor or competing ligand from its target. A higher Ki goes with a looser hold on the target.

Chains of the proteins cited; added tags and fusions are not shown.
UniProt P18089, whole entry: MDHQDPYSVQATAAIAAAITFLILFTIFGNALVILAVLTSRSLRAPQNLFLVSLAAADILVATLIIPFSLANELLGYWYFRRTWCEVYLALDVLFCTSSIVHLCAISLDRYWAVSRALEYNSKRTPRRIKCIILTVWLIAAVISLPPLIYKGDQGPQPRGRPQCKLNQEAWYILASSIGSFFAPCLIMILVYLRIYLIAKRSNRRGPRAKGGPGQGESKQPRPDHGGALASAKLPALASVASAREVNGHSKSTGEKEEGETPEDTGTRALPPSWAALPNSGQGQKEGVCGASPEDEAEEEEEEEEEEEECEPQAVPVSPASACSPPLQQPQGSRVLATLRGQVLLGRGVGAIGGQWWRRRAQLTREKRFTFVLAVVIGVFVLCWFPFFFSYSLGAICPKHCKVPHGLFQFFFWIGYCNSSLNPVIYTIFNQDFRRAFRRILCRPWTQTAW

Results on 1 compound are retold here after ChEMBL document CHEMBL4402608 (J Med Chem, 2020).

Structures are written as SMILES.

This test addresses Alpha-2B adrenergic receptor (Homo sapiens, UniProt P18089).

As for `CCCN[C@H]1CCc2nc(N)sc2C1` [PRAMIPEXOLE], the Ki was found to be 67.7 nM.
